These results are taken from patent publication US5401725A, “Neovascularization inhibition by adenosine-5'-phosphosulfates” (Unitika Ltd., priority 1990, dated 1995).

The structures appear in SMILES notation. Entries after “also recorded” stand apart in the source; their conditions may differ.

Experiment [1] has as its system neovascularization of chorio-allantoic membranes. Description: neovascularization inhibition on chorio-allantoic membranes of fertilized fowl eggs. The following applies: in vivo.
In experiment [2] the test system is neovascularization in the cornea. Kind of experiment: inhibition of neovascularization in the cornea of rabbits (slow-releasing pellet). The following applies: rabbit, in vivo.
Experiment [3] relates to capillary vessel hyperplasia (experimental diabetic retinopathy). Kind of experiment: therapeutic effect on experimental diabetic retinopathy. Details: species or system rat (wister). The following applies: rat, in vivo; for beneficial effect on the pathologic state: ip. As to the method:
First, streptozocin in an amount of 65 mg/kg was administered to a six-week aged male wister rat from its vena caudalis, and about three months thereafter, 3,3'-iminodipropionitrile was administered. Rats in which abnormal growth of capillary vessel (hyperplasia retinitis) was observed were screened out and were subjected to a medicament administration test with ten rats as a group.
For comparison purposes, the effect of the medroxyprogesterone acetate (MPA), the conventional substance for inhibiting the neovascularization, was also tested by the same procedure as described above.

As for `Nc1ncnc2c1ncn2[C@@H]1O[C@H](COP(=O)(O)OS(=O)(=O)O)[C@@H](O)[C@H]1O` [APS, adenosine 5'-phosphosulfate], the “neovascularization inhibition (in words)” value in experiment [1] is listed as “inhibited neovascularization in a dose-dependent manner”. The “neovascularization inhibitory effect (in words)” value in experiment [1] is recorded as “slight effect; also recorded: perfect neovascularization inhibitory effect”. The “inhibition of neovascularization caused by prostaglandin E1 or cuprous chloride” value in experiment [2] is given as “perfectly inhibit the neovascularization”. The “therapeutic effect as compared with MPA (in words)” value in experiment [3] is “excellent therapeutic effect”. Moreover, the “beneficial effect on the pathologic state” value in experiment [3] (1.5 mg/kg) is 10%; in experiment [3] (3 mg/kg), 70%; in experiment [3] (6 mg/kg), “at least 80%”.
